These are literature values, as cited in article PMC6007947, “Sensitivity of pretargeted immunoPET using ^68Ga-peptide to detect colonic carcinoma liver metastases in a murine xenograft model: Comparison with ^18FDG PET-CT” (Oncotarget, 2018).

This data set concerns CRC liver metastases.

Each structure is given as a SMILES string.

On to `OC[C@H]1OC(O)[C@H](F)[C@@H](O)[C@@H]1O` (some centres unmarked), for which the “Reported sensitivity for lesions < 10 mm” value (lesions < 10 mm) is 50%. Besides, the “Reported sensitivity for detection of CRC liver metastases” value (overall, before the fall for small lesions) is given as 88%.
